According to patent publication US20030148921:

Legend:
[1] = test system: galactosidase-PAR4 (GPAR4) fusion protein
[2] = test system: galactosidase-PAR1 (GPAR1) fusion protein [β-galactosidase: P00722]
[3] = test system: galactosidase-PAR2 (GPAR2) fusion protein
[4] = test system: GPAR2^R34S activation site mutant fusion protein
[5] = test system: galactosidase-PAR3 (GPAR3) fusion protein
[6] = test system: GPAR3^K37S activation site mutant fusion protein
[7] = test system: activation site mutant fusion protein GPAR1^R45S
[8] = test system: GPAR4^R47S activation site mutant fusion protein

| Substance | β-Galactosidase release rate (mmol β-Galactosidase/(molProtease * min)) [1] | β-Galactosidase release rate (mmol β-Galactosidase/(molProtease * min)) [2] | β-Galactosidase release rate (mmol β-Galactosidase/(molProtease * min)) [3] | β-Galactosidase release rate (mmol β-Galactosidase/(molProtease * min)) [4] | β-Galactosidase release rate (mmol β-Galactosidase/(molProtease * min)) [5] | β-Galactosidase release rate (mmol β-Galactosidase/(molProtease * min)) [6] | β-Galactosidase release rate (mmol β-Galactosidase/(molProtease * min)) [7] | β-Galactosidase release rate (mmol β-Galactosidase/(molProtease * min)) [8] | initial rate, against GPAR1 [5] | amount of thrombin needed to elicit a response, against GPAR1 [7] |
| --- | --- | --- | --- | --- | --- | --- | --- | --- | --- | --- |
| bovine type II chymotrypsin | 3.4 | 58 | 5.6 | 4.3 | 4.7 | 4.5 | 78 | 8.4 |  |  |
| human high-molecular-mass urokinase | ≤ 0.01 | ≤ 0.01 | ≤ 0.01 | ≤ 0.01 | ≤ 0.01 | ≤ 0.01 | ≤ 0.01 | ≤ 0.01 |  |  |
| human thrombin | 4.3 | 2600 | 0.01 | ≤ 0.01 | 410 | 3.4 | 0.07 | 0.02 | about six times lower than for GPAR1 | More than 30000 times more thrombin was needed to elicit a response with GPAR1^R45S |
